# Laboratory results published in patent US12061202B2, “Compositions and methods for bioluminescent detection using multifunctional probes” (Promega Corporation, priority 2019, dated 2024).
# System: SKBR3 cells
# Experiment: Antibody dependent cellular cytotoxicity (ADCC), labeled SKBR3 cells co-cultured with PBMC
# Format: cell-based
# Details: SKBR3 labeled with 10 μM Labeling Probe; PBMC E:T 20:1; 5 hours at 37° C.
# Experimental: As shown in FIGS. 3A-3C, experiments were conducted to test antibody dependent cellular cytotoxicity (ADCC) in Daudi (FIGS. 3A-3B) and SKBR3 (FIG. 3C) cells labeled with the bifunctional probes of the present disclosure. Daudi and SKBR3 cells were labeled with 1 μM and 10 μM Labeling Probe respectively and co-cultured with peripheral blood mononuclear cells (PBMC; Cellular Technologies Limited) at an E:T ratio of 20:1 (100,000 effector to 5,000 target) with indicated antibody titrations for 5 hours at 37° C. prior to Nano-Glo® Luciferase Assay Substrate addition. […] Curves in FIGS. 3B and 3C were generated following assay background subtraction (RLU [Target cells+Effector cells+Detection Components]−RLU [Media+Detection Components]) using a four parametric variable slope algorithm in Prism.
substance,measurement,value
Herceptin: antibody titrated in ADCC assay on SKBR3 cells,EC50,0.11 µg/mL
